Target: μ-opioid receptors in the guinea pig ileum (Cavia porcellus, UniProt A0ACM8Q262)
Test: μ-opioid receptor bioassay, test for antagonist activity (DAMGO-induced decrease in twitch contraction amplitude)
Conditions: mean, n=2

Chains of the proteins cited; added tags and fusions are not shown. Residues count along the entry.
UniProt A0ACM8Q262, 1-400: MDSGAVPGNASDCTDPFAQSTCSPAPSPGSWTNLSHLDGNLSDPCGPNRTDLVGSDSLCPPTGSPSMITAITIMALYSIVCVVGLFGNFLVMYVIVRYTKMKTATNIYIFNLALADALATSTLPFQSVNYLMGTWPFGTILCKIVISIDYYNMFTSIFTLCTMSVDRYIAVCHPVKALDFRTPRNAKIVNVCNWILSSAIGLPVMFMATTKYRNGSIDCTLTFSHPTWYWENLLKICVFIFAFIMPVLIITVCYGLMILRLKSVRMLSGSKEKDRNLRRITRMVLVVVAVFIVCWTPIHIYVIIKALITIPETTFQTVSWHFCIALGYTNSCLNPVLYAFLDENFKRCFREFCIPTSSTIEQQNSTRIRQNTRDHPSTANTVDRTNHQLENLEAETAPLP

C=CCN1CC[C@]23c4c5ccc(O)c4O[C@H]2C(=O)CC[C@@]3(O)[C@H]1C5 [Naloxone]
antagonist activity: response to DAMGO (1.0E−07M) in presence of compound (compound 1.0E−07 M): −5% of the control response to DAMGO | antagonist activity: response to DAMGO (1.0E−07M) in presence of compound (compound 2.0E−08 M): 40% of the control response to DAMGO | antagonist activity: response to DAMGO (1.0E−07M) in presence of compound (compound 5.0E−09 M): 88% of the control response to DAMGO

— patent US12569471B2, “Method of treatment of CNS disorders” (Supernus Pharmaceuticals, Inc., priority 2009, dated 2026)
